Experiments:
[1] = target: T1, human REG4 (Regenerating islet-derived Gene Type IV) protein (human, UniProt Q9BYZ8 23-158); experiment: SPR, Biacore T100, REG4 amine-coupled to CM5 chip, antibody as analyte, bivalent analyte model
T1 construct: Recombinant human REG4 made in house (Schering-Plough BioPharma REG4_H, lot 04ABY), amine-coupled to a CM5 chip; also called hREG4 protein; REG4_H, lot 04ABY
Protocol: (§1) The kinetic binding activity of Rat Anti-REG4_H antibodies against Schering-Plough BioPharma REG4_H, lot 04ABY, was measured by surface plasmon resonance using a Biacore T100 system (Biacore, GE Healthcare, Piscataway, N.J.). […] Schering-Plough BioPharma Rat Anti-REG4_H antibodies were injected over the immobilized REG4_H surface at varying concentrations, ranging from [0.091 nM to 600 nM], at a flow rate of 30 μL/min. Following each injection cycle, the CM5 chip surface was regenerated using a 10 mM Glycine pH 1.5 solution followed by an injection of 25 mM NaOH solution at a flow rate of 75 μL/min.
(§2) Background subtraction binding sensorgrams were used for analyzing the rate constants; association (kₐ), dissociation (kd), and the equilibrium dissociation constant KD. The resulting data sets were fitted with a Bivalent Analyte Model using the Biacore T100 evaluation software (version 1.1.1).

[2] = target: T1, human REG4 (Regenerating islet-derived …); experiment: SPR, Biacore T100, REG4 amine-coupled to CM5 chip, antibody as analyte, bivalent analyte model; apparent Kd
Protocol: as §1, §2

| Binder | koff [1] | kon [1] | Kd [2] |
| --- | --- | --- | --- |
| 3C2.3D10 (antibody, V domains shown, Rat monoclonal antibody with kappa light chain; also called Rat Anti-REG4_H antibody; REG4 antibody 3C2.3D10) VH: EVKVVASGGILVQPGGSLKLSCIVSGFTFRSYIMSWVRQNPEKRLEWVAEINDGGSYTHYPDTVKGRFIVSRDNDNNILYLQMNSLKSEDTAMYYCVRHGSNGYDYFGMDYWGQGTSVTVSS VL: DVLMTQTPLSLSVSLGDQASISCRSSQTIAHRNGITYLEWYLQKPGQSPKLLMYKVSNRFSGVPDRFSGSGSGTDFTLKISRVEAEDLGLYYCFQNSHLPPTFGGGTNLEIKR | 1.8e-05 s⁻¹ | 76000 M⁻¹ s⁻¹ | 0.24 nM |
| 9F3.3A4 (antibody, V domains shown, Rat monoclonal antibody with kappa light chain; also called Rat Anti-REG4_H antibody; REG4 antibody 9F3.3A4) VH: EVKVVASGGILVQPGGSLKLSCTASGFTFRSYVMSWVRQNPEKRLEWVAEINDGGSYTHYPDSVKGRFIISRDNDNHILYLQMNSLKSEDTAMYYCVRHGSTGYDYFGMDYWGQGTSVTVSS VL: DVLMTQTPLSLSVSLGDQASISCRSSQTIAHRNGITYLEWYLQKPGQSPKLLMYKVSNRFSGVPDRFSGSGSGTDFTLKISRVEAEDLGLYYCFQNSHLPPTFGGGTNLEIKR | – | 66000 M⁻¹ s⁻¹ | – |
| 13E1.1B11 (antibody, V domains shown, Rat monoclonal antibody with kappa light chain; also called Rat Anti-REG4_H antibody; REG4 antibody 13E1.1B11) VH: QIQLVQSGPELKKPGETVKISCKASGYTFTNYGMNWVKQAPGKGLKWMGWINTYTGEPTYAADFKGRFALSLETSASTAYLQINNLKNEDTATYLCARRNWDPYALDYWGQGTSVTVSS VL: DIVMTQSPSSLTVTAGEKFTMSCKSSQSLVNSGNQKNFLTWYQQKPGQPPKLLIYWASTRESGVPDRFTGSGSGTDFTLTISSVQAEDLAVYYCQNDYSYPYTFGGGTKLEIKR | 0.00117 s⁻¹ | 4000 M⁻¹ s⁻¹ | 316 nM |
| 70A9.3C2 (antibody, V domains shown, Rat monoclonal antibody with kappa light chain; also called Rat Anti-REG4_H antibody; REG4 antibody 70A9.3C2) VH: EIQLQQSGPELVKPGASVKVSCKASGYAFTSYNMYWVKQSHGQSLEWIGRIDPHNGVTTYNQKFKGKPTLTVDRSSSTAFMHLNSLTSEDSAVYYCAREGYDYDVWGQGTTLTVSS VL: DIKMTQSPSSMYASLGERVSITCKASQDINSFLSWFQQKPGKSPKTLIYRANGLVDGVPSRFSGSGSGQDYSLTISSLEYEDMGIYYCLQYDEFPYTFGGGTKLEIKR | 0.00101 s⁻¹ | 1.68e+06 M⁻¹ s⁻¹ | 0.601 nM |
| 12E1.3C11 (antibody, V domains shown, Rat monoclonal antibody with kappa light chain; also called Rat Anti-REG4_H antibody; REG4 antibody 12E1.3C11) VH: DVQLLESGPGLVRPSQSLSLTCSVTGNSITSYYWTWIRQFPGNKLEWMGYIGYDDSNEYNPSLKNRISITRDTSKNQFFLKLNSVTSEDTATYFCAREDYDWFAYWGQGTLVTVSA VL: DIVLTQSPVILSVTPGDSVSLSCRASQSIGNNLHWYHQKSHESPRLLIKYVSQSISGIPSRFSGSGSETGFTLRLNSVETEDFGMFFCQQSNSWPFTFGSGTKLEIKR | 2.1e-05 s⁻¹ | 330000 M⁻¹ s⁻¹ | 0.062 nM |
